This note sets out measurements from patent US20170051065A1 (Hoffmann-La Roche, published 2017).

Like-named read-outs stand apart in the source and are kept apart here.

Common to all, as to assay: cell-based or functional assay
Assay [1] has as its target T1, human wildtype CSF-1R (wt CSF-1R) (human, UniProt P07333 20-972).
The target in assay [2] is T1, human wildtype CSF-1R (wt CSF-1R). This is another data set of the same source.
Assay [3] has the same target. The source holds these as a separate data set.

B1: Mab 2F11 (antibody, V domains shown)
VH: QVQLKESGPGLVAPSQSLSITCTVSGFSLTTYDISWIRQSPGKGLEWLGVIWTDGGTNYNSPFMSRLSIRKDNSKSQVFLKMNRLQTDDTAIYYCVRDQRLYFDVWGAGTTVTVSS
VL: NIVMTQSPKSMSMSVGERVTLNCKASEDVNTYVSWYQQQPEQSPKLLIYGASNRYTGVPDRFTGGGSTTDFTLTISSVQAEDLADYFCGQSFSYPTFGTGTKLEIK
For the molecule B1, in assay [1], the “IC50 of inhibition of survival of human monocytes cultured with huCSF-1 (CellTiterGlo)” value (shortened to “IC50 of inhibition of survival … (CellTiterGlo)”) was 0.08 µg/mL. Also, the “IC50 CSF-1R Phosphorylation (ELISA phospho/total receptor, NIH3T3-CSF-1R cells stimulated with hu CSF-1)” value in assay [2] was found to be 0.219 µg/mL.

B2: Mab 2E10 (antibody, V domains shown)
VH: QVQLKESGPGLVAPSKSLSITCTVSGSSLDSFDISWIRQSPGKGLEWLGVIWTGGGTNYNSGFMSRLRITKDNSKSQVLLKMNSLQSDDTAIYYCVRDPRLYFDVWGAGTTVTVSS
VL: NIVMTQSPKSMSMSVGERVTLSCKASEDVVTYVSWYQQKPDQSPKLLIYGASNRYTGVPDRFTGSGSATDFTLTISSVQAEDLADYYCGQTFSYPTFGTGTKLEIK
With B2, the “IC50 of inhibition of survival … (CellTiterGlo)” value in assay [1] is 0.06 µg/mL. Moreover, the “IC50 CSF-1R Phosphorylation (ELISA phospho/total receptor, NIH3T3-CSF-1R cells stimulated with hu CSF-1)” value in assay [2] was 0.752 µg/mL.

B3: Mab 2H7 (antibody, V domains shown)
VH: QVQLKESGPGLVAPSKSLSITCTVSGSSLDSFDISWIRQPPGKGLEWLGVIWTGGGTNYNSGFMSRLRISKDNSKSQVFLKMSSLQSDDTAIYYCVRDPRLYFDVWGAGTTVTVSS
VL: NIVMTQSPKSMSMSVGERVTLSCKASEDVVTYVSWYQQKPEQSPKLLIYGASNRYTGVPDRFTGSGSATDFTLTISSIQAEDLADYYCGQTFSYPTFGTGTKLEIK
B3: the “IC50 of inhibition of survival … (CellTiterGlo)” value in assay [1] was 0.03 µg/mL. Further, the “IC50 CSF-1R Phosphorylation (ELISA phospho/total receptor, NIH3T3-CSF-1R cells stimulated with hu CSF-1)” value in assay [2] was 0.703 µg/mL.

B4: Mab 1G10 (antibody, V domains shown)
VH: RVQLKESGPGLVAPSQSLSITCTVSGFSLTSYDISWIRQSPGKGLEWLGVIWSGGGTNYNSPFMSRLRISKDDSRSQVFLKVNRLQTDDTAIYYCVRDLRLYFDVWGAGTTVTVSS
VL: KIVMTQSPKSMSVSVGERVSLSCKASEDVGTYVSWYQQKPEQSPKLLIYGSSNRYTGVPDRFTGSGSATDFTLTISSVQAEDLADYSCGQSFTYPTFGTGTKLEIK
B4: the “IC50 of inhibition of survival … (CellTiterGlo)” value in assay [1] was found to be 0.06 µg/mL. In assay [2], the “IC50 CSF-1R Phosphorylation (ELISA phospho/total receptor, NIH3T3-CSF-1R cells stimulated with hu CSF-1)” value worked out at 0.0566 µg/mL.

B5: hMab 2F11-f12 (antibody, V domains shown)
VH: QVQLVQSGAEVKKPGSSVKVSCKASGFSLTTYDISWVRQAPGQGLEWMGVIWTDGGTNYNSPFMSRVTITKDESTSTAYMELSSLRSEDTAVYYCVRDQRLYFDVWGQGTTVTVSS
VL: DIQMTQSPSSLSASVGDRVTITCRASEDVNTYVSWYQQKPGKAPKLLIYGASSLQSGVPSRFSGSGSGTDFTLTISSLQPEDFATYYCGQSFSYPTFGQGTKLEIK
Consider B5, for which, in assay [3], the “IC50 of inhibition of survival … (CellTiterGlo)” value turned out to be 0.09 µg/mL.
